ChEMBL document CHEMBL2074017, “Distinct characteristics of organic cation transporters, OCT1 and OCT2, in the basolateral membrane of renal tubules” (Pharm Res, 2001)
pIC50: −log10 of the molar value.

Target: T1, Solute carrier family 22 member 1 (Rattus norvegicus, UniProt Q63089)
T1 sequence (Q63089 whole entry): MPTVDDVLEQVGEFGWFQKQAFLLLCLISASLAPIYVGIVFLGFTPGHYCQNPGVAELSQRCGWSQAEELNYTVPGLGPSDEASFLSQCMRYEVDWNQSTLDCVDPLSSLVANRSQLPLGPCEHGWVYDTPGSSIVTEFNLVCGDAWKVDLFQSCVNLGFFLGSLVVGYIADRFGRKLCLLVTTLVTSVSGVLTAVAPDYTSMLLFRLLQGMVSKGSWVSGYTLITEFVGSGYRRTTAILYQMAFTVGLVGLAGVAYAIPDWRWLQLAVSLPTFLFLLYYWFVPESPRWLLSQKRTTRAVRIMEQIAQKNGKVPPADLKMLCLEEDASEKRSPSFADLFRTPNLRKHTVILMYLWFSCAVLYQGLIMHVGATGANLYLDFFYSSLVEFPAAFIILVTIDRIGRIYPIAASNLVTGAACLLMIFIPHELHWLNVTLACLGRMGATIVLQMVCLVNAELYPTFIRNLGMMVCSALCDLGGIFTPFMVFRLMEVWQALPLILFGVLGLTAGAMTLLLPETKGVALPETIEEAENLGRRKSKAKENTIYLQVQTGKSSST
Type: functional, cell-based, MDCK

## C[N+](C)(C)C [TETRAMETHYLAMMONIUM]
  pIC50: 2.94
